According to PubChem BioAssay AID2551 (National Center for Advancing Translational Sciences (NCATS), 2010):
Where “and” joins values, the source holds several entries; their conditions need not be identical. Equal entries are not always repeated. The list shows a part of the results, in another mix than the full data. Results filed as inconclusive are left out. Calls of active or inactive are those of the source. The call rests on the fitted dose curve; in most records, active means well fitted inhibition curve with a large enough effect; inconclusive means small, poorly fitted or top-dose-only effect, or effect the other way; inactive means no such curve, though single readings can be large or run the other way.

By UniProt entry, the sequences of proteins in these tests, tags left out. Where a name states a change or a piece, a line headed by the entry shows the natural chain unless it says otherwise.
UniProt P51450: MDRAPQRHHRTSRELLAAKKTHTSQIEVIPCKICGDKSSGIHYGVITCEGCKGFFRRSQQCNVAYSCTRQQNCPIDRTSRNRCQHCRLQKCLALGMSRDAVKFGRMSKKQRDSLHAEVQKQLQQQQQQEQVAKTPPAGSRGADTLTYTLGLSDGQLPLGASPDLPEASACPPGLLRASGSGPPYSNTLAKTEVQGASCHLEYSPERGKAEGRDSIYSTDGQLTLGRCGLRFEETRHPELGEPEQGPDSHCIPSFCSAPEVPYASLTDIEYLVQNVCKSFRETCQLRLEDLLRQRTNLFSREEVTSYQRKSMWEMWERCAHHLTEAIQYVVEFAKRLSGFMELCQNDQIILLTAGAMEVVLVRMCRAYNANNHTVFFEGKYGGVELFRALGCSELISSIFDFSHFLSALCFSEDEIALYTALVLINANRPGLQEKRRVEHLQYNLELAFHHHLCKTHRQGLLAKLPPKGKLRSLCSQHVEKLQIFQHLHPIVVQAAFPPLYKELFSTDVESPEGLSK

Target: Nuclear receptor ROR-gamma (Mus musculus) (UniProt P51450)
Test: qHTS for inhibitors of ROR gamma transcriptional activity; further: nearly all actives have a fitted effect of over 60% in size
Details: Drosophila S2 Gal4-RORgamma UAS-luciferase reporter, 20 h; at 53.6 µM (top of the series) unless noted
On the % scale 0 is the no-effect control and ±100 the full control effect.

Row | Compound | activity change, negative = inhibition
1 | CN1C2CC(OC(=O)C(CO)c3ccccc3)CC1C1OC12 (stereo unspecified) | inactive: 31.5% and inactive: -19.1%
2 | CN1[C@H]2CC(OC(=O)[C@H](CO)c3ccccc3)C[C@H]1[C@H]1O[C@H]12 (stereo partly specified) | inactive: -2.91% and inactive: -0.274%
3 | CN1[C@@H]2CC(OC(=O)[C@H](CO)c3ccccc3)C[C@@H]1[C@H]1O[C@H]12 (stereo partly specified) | inactive: 2.35%
4 | CN1[C@@H]2CC(OC(=O)[C@@H](CO)c3ccccc3)C[C@@H]1[C@H]1O[C@H]12 (stereo partly specified) | inactive: -8.02% [at 10 µM]
5 | CN1[C@@H]2CC(OC(=O)[C@H](CO)c3ccccc3)C[C@H]1[C@@H]1O[C@@H]12 (stereo partly specified) | inactive: 13% and inactive: -23.2%
6 | CN1C2CC(OC(=O)C(CO)c3ccccc3)C[C@@H]1[C@H]1OC21 (stereo partly specified) | inactive: -2.23%
